Tested on: human hepatocytes
Experiment: Uptake of pitavastatin and eltrombopag in cryopreserved human hepatocytes (oil spin method), comeasurement, micro‐rate constant mechanistic model
Assay type: in vitro ADME
Description: Human hepatocytes were obtained from BioIVT (Brussels, Belgium; lot number: LYB; 10 donor LiverPool (8 Caucasians, 1 African American, and 1 Hispanic) and thawed according to supplier guidelines in Leibovitz L15 medium. Hepatocytes were kept on ice prior to use and were used within 3 hours of defrosting.
Hepatocytes (viability 84–87%) were preincubated in Leibovitz L15 medium at 1.5 × 10^6 cells for 15 minutes at 37 °C with either 0.1% DMSO or 45 nmol/mL eltrombopag. Incubations were started by the addition of pitavastatin (0.3–100 nmol/mL, 1 × 10^6 cells, 0.35% DMSO, 30 nmol/mL eltrombopag final), and 100 µL samples taken at 0.25–30 minutes. Cells were separated using an oil spin method similar to the literature. ^11 , ^17 After separation, the tubes were frozen on dry ice and the bottom layer was cut off. Pitavastatin and eltrombopag were extracted in a stop solution prior to ultra‐performance liquid chromatography–high‐resolution mass spectrometry analysis (see the Supplemental Material for full experimental and sample extraction methods).
The bottom layer concentrations of pitavastatin and eltrombopag were converted to a cellular concentration using a cellular volume (V cell) of 3 µL/1 × 10^6 human hepatocytes: ^18 (1) cellnmol/mL=Bottom layer×15.3μL/Vcell/100 where V cell /1 × 10^5 cells was 0.3 µL, and the volume of the bottom layer of cesium chloride was 15 µL. A dilution factor of 100 was used to scale from pmol/mL/1 × 10^5 cells to nmol/mL/1 × 10^6 cells.
The final chosen mechanistic model (model 1 with the comeasurement of pitavastatin and eltrombopag; Table 1 ) was based on the outcome of the structural identifiability analysis and goodness‐of‐fit statistics (Bayesian information criterion, and the weighted Bayesian information criterion, ^21 and the sum of the relative mean square root error (percentage RMSRE); see Supplemental Material ). Model 1 was described using a set of ODEs representing the following: the amount of pitavastatin (X = substrate (S) or pitavastatin (P)) and eltrombopag (X = inhibitor (I) or eltrombopag (E)) in the medium (X 1), the amount bound to transporter (X 2), and the intracellular amount (X 3). Passive rate constants for movement into and out of the cell (k f.X and k bX, respectively) as well as uptake transporter‐mediated rate constants for association to the transporter (k aX) and dissociation (k dX) and translocation (k tX) from the transporter into the medium and cell, respectively. Metabolism of pitavastatin in the cell was through an elimination rate constant (k e). The sets of ODEs for all the models (models 1–4; Table 1 ) tested for structural identifiability and used for parameter estimation are included in the Supplemental Material .
Parameter estimation was conducted within Monolix 2018 R2 (Lixoft, Antony, France) for each concentration and experiment as an individual data set, where to ensure positivity, a log‐normal distribution was assumed for each parameter, with a proportional residual error model for the observations. Because of the large number of parameters to be estimated in the combined pitavastatin and eltrombopag mechanistic model, the initial estimates for pitavastatin and eltrombopag each were obtained for the micro‐rate constant models (no macro‐rate constant estimates could be obtained for eltrombopag alone for transporter‐mediated uptake).
Hepatocyte Incubations. 0.4 mL of hepatocytes was diluted 1:1 with Leibovitz either containing DMSO blank (0.1 % for pitavastatin or 0.25 % for eltrombopag alone) or eltrombopag at 90 nmol/mL and pre-incubated at 1.5x10^6 cells/mL for 15 min at 37 °C in 7 mL glass scintillation vials (PerkinElmer, Vasby, Sweden) in a shaking water bath (Grant Instruments, Cambridge, UK). Pitavastatin was dissolved and serially diluted in DMSO to give 0.12, 0.4, 1.2, 4, 12 and 40 µmol/mL, and then diluted 400-fold into 37 °C Leibovitz L15 medium. […]

For `O=C(O)C[C@H](O)C[C@H](O)/C=C/c1c(C2CC2)nc2ccccc2c1-c1ccc(F)cc1` [pitavastatin, pitavastatin calcium], the “DV (pitavastatin uptake into hepatocytes)” value (ID 23, AMT 1, TIME 20, DVID 2) was 6.95, the “DV (pitavastatin uptake into hepatocytes)” value (ID 23, AMT 1, TIME 25, DVID 2) was 7.41 and the “DV (pitavastatin uptake into hepatocytes)” value (ID 23, AMT 1, TIME 45, DVID 2) was 6.87. For the same molecule, the “DV (pitavastatin uptake into hepatocytes)” value (ID 24, AMT 1, TIME 15.25, DVID 2) was 1.01, the “DV (pitavastatin uptake into hepatocytes)” value (ID 24, AMT 1, TIME 15.5, DVID 2) was 1.32 and the “DV (pitavastatin uptake into hepatocytes)” value (ID 24, AMT 1, TIME 16, DVID 2) was 2.01. The “DV (pitavastatin uptake into hepatocytes)” value (ID 24, AMT 1, TIME 17, DVID 2) was 3.12, the “DV (pitavastatin uptake into hepatocytes)” value (ID 24, AMT 1, TIME 20, DVID 2) was 3.79 and the “DV (pitavastatin uptake into hepatocytes)” value (ID 24, AMT 1, TIME 25, DVID 2) was 4.34. The “DV (pitavastatin uptake into hepatocytes)” value (ID 24, AMT 1, TIME 45, DVID 2) was 3.81, the “DV (pitavastatin uptake into hepatocytes)” value (ID 25, AMT 3, TIME 15.25, DVID 2) was 2.77 and the “DV (pitavastatin uptake into hepatocytes)” value (ID 25, AMT 3, TIME 15.5, DVID 2) was 3.9. The “DV (pitavastatin uptake into hepatocytes)” value (ID 25, AMT 3, TIME 16, DVID 2) was 5.45, the “DV (pitavastatin uptake into hepatocytes)” value (ID 25, AMT 3, TIME 17, DVID 2) was 6.15 and the “DV (pitavastatin uptake into hepatocytes)” value (ID 25, AMT 3, TIME 20, DVID 2) was 8.63. The “DV (pitavastatin uptake into hepatocytes)” value (ID 25, AMT 3, TIME 25, DVID 2) was 8.51, the “DV (pitavastatin uptake into hepatocytes)” value (ID 25, AMT 3, TIME 45, DVID 2) was 8.88 and the “DV (pitavastatin uptake into hepatocytes)” value (ID 26, AMT 3, TIME 15.25, DVID 2) was 7.14. The “DV (pitavastatin uptake into hepatocytes)” value (ID 26, AMT 3, TIME 15.5, DVID 2) was 9.19, the “DV (pitavastatin uptake into hepatocytes)” value (ID 26, AMT 3, TIME 16, DVID 2) was 12.88 and the “DV (pitavastatin uptake into hepatocytes)” value (ID 26, AMT 3, TIME 17, DVID 2) was 12.66. The “DV (pitavastatin uptake into hepatocytes)” value (ID 26, AMT 3, TIME 20, DVID 2) was 19.85, the “DV (pitavastatin uptake into hepatocytes)” value (ID 26, AMT 3, TIME 25, DVID 2) was 21.39 and the “DV (pitavastatin uptake into hepatocytes)” value (ID 26, AMT 3, TIME 45, DVID 2) was 21.78. The “DV (pitavastatin uptake into hepatocytes)” value (ID 27, AMT 3, TIME 15.25, DVID 2) was 3.01, the “DV (pitavastatin uptake into hepatocytes)” value (ID 27, AMT 3, TIME 15.5, DVID 2) was 3.97 and the “DV (pitavastatin uptake into hepatocytes)” value (ID 27, AMT 3, TIME 16, DVID 2) was 5.7. The “DV (pitavastatin uptake into hepatocytes)” value (ID 27, AMT 3, TIME 17, DVID 2) was 7.64, the “DV (pitavastatin uptake into hepatocytes)” value (ID 27, AMT 3, TIME 20, DVID 2) was 9.22 and the “DV (pitavastatin uptake into hepatocytes)” value (ID 27, AMT 3, TIME 25, DVID 2) was 11.17. The “DV (pitavastatin uptake into hepatocytes)” value (ID 27, AMT 3, TIME 45, DVID 2) was 9.03, the “DV (pitavastatin uptake into hepatocytes)” value (ID 28, AMT 10, TIME 15.25, DVID 2) was 8.66 and the “DV (pitavastatin uptake into hepatocytes)” value (ID 28, AMT 10, TIME 15.5, DVID 2) was 11.6. For the same molecule, the “DV (pitavastatin uptake into hepatocytes)” value (ID 28, AMT 10, TIME 16, DVID 2) was 13.7, the “DV (pitavastatin uptake into hepatocytes)” value (ID 28, AMT 10, TIME 17, DVID 2) was 20.56 and the “DV (pitavastatin uptake into hepatocytes)” value (ID 28, AMT 10, TIME 20, DVID 2) was 22.94. The “DV (pitavastatin uptake into hepatocytes)” value (ID 28, AMT 10, TIME 25, DVID 2) was 25.07, the “DV (pitavastatin uptake into hepatocytes)” value (ID 28, AMT 10, TIME 45, DVID 2) was 27.58 and the “DV (pitavastatin uptake into hepatocytes)” value (ID 29, AMT 10, TIME 15.25, DVID 2) was 20.13. The “DV (pitavastatin uptake into hepatocytes)” value (ID 29, AMT 10, TIME 15.5, DVID 2) was 27.47, the “DV (pitavastatin uptake into hepatocytes)” value (ID 29, AMT 10, TIME 16, DVID 2) was 37.04 and the “DV (pitavastatin uptake into hepatocytes)” value (ID 29, AMT 10, TIME 17, DVID 2) was 47.38. The “DV (pitavastatin uptake into hepatocytes)” value (ID 29, AMT 10, TIME 20, DVID 2) was 54.85, the “DV (pitavastatin uptake into hepatocytes)” value (ID 29, AMT 10, TIME 25, DVID 2) was 67.61 and the “DV (pitavastatin uptake into hepatocytes)” value (ID 29, AMT 10, TIME 45, DVID 2) was 56.74. For the same molecule, the “DV = amount of measured pitavastatin and/or eltrombopag” value (shortened to “DV = amount”) (ID 29, pitavastatin AMT 10 nmol at TIME 15, TIME 16 min) was 37.04 nmol, the “DV = amount” value (ID 29, pitavastatin AMT 10 nmol at TIME 15, TIME 17 min) was 47.38 nmol and the “DV = amount” value (ID 29, pitavastatin AMT 10 nmol at TIME 15, TIME 20 min) was 54.85 nmol. For the same molecule, the “DV = amount” value (ID 29, pitavastatin AMT 10 nmol at TIME 15, TIME 25 min) was 67.61 nmol, the “DV = amount” value (ID 29, pitavastatin AMT 10 nmol at TIME 15, TIME 45 min) was 56.74 nmol and the “DV (pitavastatin uptake into hepatocytes)” value (ID 30, AMT 10, TIME 15.25, DVID 2) was 10.53. The “DV (pitavastatin uptake into hepatocytes)” value (ID 30, AMT 10, TIME 15.5, DVID 2) was 12.06, the “DV (pitavastatin uptake into hepatocytes)” value (ID 30, AMT 10, TIME 16, DVID 2) was 17.35 and the “DV (pitavastatin uptake into hepatocytes)” value (ID 30, AMT 10, TIME 17, DVID 2) was 21.4. For the same molecule, the “DV (pitavastatin uptake into hepatocytes)” value (ID 30, AMT 10, TIME 20, DVID 2) was 28.45, the “DV (pitavastatin uptake into hepatocytes)” value (ID 30, AMT 10, TIME 25, DVID 2) was 34.14 and the “DV (pitavastatin uptake into hepatocytes)” value (ID 30, AMT 10, TIME 45, DVID 2) was 28.9. The “DV = amount” value (ID 30, pitavastatin AMT 10 nmol at TIME 15, TIME 15.25 min) was 10.53 nmol, the “DV = amount” value (ID 30, pitavastatin AMT 10 nmol at TIME 15, TIME 15.5 min) was 12.06 nmol and the “DV = amount” value (ID 30, pitavastatin AMT 10 nmol at TIME 15, TIME 16 min) was 17.35 nmol. The “DV = amount” value (ID 30, pitavastatin AMT 10 nmol at TIME 15, TIME 17 min) was 21.4 nmol, the “DV = amount” value (ID 30, pitavastatin AMT 10 nmol at TIME 15, TIME 20 min) was 28.45 nmol and the “DV = amount” value (ID 30, pitavastatin AMT 10 nmol at TIME 15, TIME 25 min) was 34.14 nmol. The “DV = amount” value (ID 30, pitavastatin AMT 10 nmol at TIME 15, TIME 45 min) was 28.9 nmol, the “DV (pitavastatin uptake into hepatocytes)” value (ID 31, AMT 30, TIME 15.25, DVID 2) was 26.63 and the “DV (pitavastatin uptake into hepatocytes)” value (ID 31, AMT 30, TIME 15.5, DVID 2) was 31.4. The “DV (pitavastatin uptake into hepatocytes)” value (ID 31, AMT 30, TIME 16, DVID 2) was 43.67, the “DV (pitavastatin uptake into hepatocytes)” value (ID 31, AMT 30, TIME 17, DVID 2) was 56.57 and the “DV (pitavastatin uptake into hepatocytes)” value (ID 31, AMT 30, TIME 20, DVID 2) was 70.75. The “DV (pitavastatin uptake into hepatocytes)” value (ID 31, AMT 30, TIME 25, DVID 2) was 59.98, the “DV (pitavastatin uptake into hepatocytes)” value (ID 31, AMT 30, TIME 45, DVID 2) was 87.76 and the “DV = amount” value (ID 31, pitavastatin AMT 30 nmol at TIME 15, TIME 15.25 min) was 26.63 nmol. The “DV = amount” value (ID 31, pitavastatin AMT 30 nmol at TIME 15, TIME 15.5 min) was 31.4 nmol, the “DV = amount” value (ID 31, pitavastatin AMT 30 nmol at TIME 15, TIME 16 min) was 43.67 nmol and the “DV = amount” value (ID 31, pitavastatin AMT 30 nmol at TIME 15, TIME 17 min) was 56.57 nmol. For the same molecule, the “DV = amount” value (ID 31, pitavastatin AMT 30 nmol at TIME 15, TIME 20 min) was 70.75 nmol.

From article PMC7179958, “Prediction of Clinical Transporter‐Mediated Drug–Drug Interactions via Comeasurement of Pitavastatin and Eltrombopag in Human Hepatocyte Models” (CPT: Pharmacometrics & Systems Pharmacology, 2020)
